Tested on: TCR-ζ
Test: Cell-free association of TCR-ζ with the actin cytoskeleton (detergent soluble lysate, newly polymerized pellet)
Type: biochemical, murine
Protocol: Freshly isolated murine thymocytes or lymph node T cells, or CD25/ζ-expressing T cell hybridomas, were washed 3 times in BSS and incubated in the presence or absence of cytochalasin D for 1.5 hrs at 4° C., solubilized with 0.5% NP-40 in a Tris buffered saline solution (TBS; 150 mM NaCl, 10 mM Tris, pH 7.3) containing protease and phosphatase inhibitors (0.2 mM VO3, 10 mM NaF, 1 mM PMSF, and 1 mg/ml each of Aprotinin, Leupeptin, and α-l-antitrypsin) and centrifuged at 10,000 rpm for 10 min to pellet the insoluble material. […] To increase actin polymerization, the Mg^2+ concentration was increased to 2 mM. […] Immunoprecipitation of the detergent soluble fraction with anti-TCR-ζ antibody was then performed as described in Example 4. The pellet and the anti-TCR-ζ immunoprecipitate were resolved by SDS-PAGE gel electrophoresis and immunoblotted with anti-TCR-ζ antibody.

MgATP
TCR-ζ binding to the pellet (MgATP concentrations below 0.1 mM): Almost no binding
Time of incubation until association and depletion of TCR-ζ from solution was detected (exogenous MgATP): ≤ 1 min
Time of optimal association of TCR-ζ with the pellet (time course experiments, 37° C.): 10 to 15 min

Reference: US6500430B1, “Product and process to regulate actin polymerization in T lymphocytes” (National Jewish Medical and Research Center, priority 1995, dated 2002)
